Values quoted from earlier work, collected in publication PMC5104425, “A Novel Selective Inhibitor of Delta-5 Desaturase Lowers Insulin Resistance and Reduces Body Weight in Diet-Induced Obese C57BL/6J Mice” (PLoS ONE, 2016).

System: cannabinoid receptor 1 (CB1)
Conditions: cited from earlier work

## Cc1c(C(=O)NN2CCCCC2)nn(-c2ccc(Cl)cc2Cl)c1-c1ccc(Cl)cc1 [rimonabant]
Chronic treatment, rodents
  UCP1 expression in interscapular BAT and WAT adipocytes: upregulated
Due to decreased food intake and increased energy expenditure
  body weight: weight loss
